Experimental findings from ChEMBL document CHEMBL2331505, “Synthesis of quinoline derivatives: discovery of a potent and selective phosphodiesterase 5 inhibitor for the treatment of Alzheimer's disease” (Eur J Med Chem, 2013) are described below.

Sequences of proteins named here, by UniProt entry; tags and fusion partners are left off. A change or cut given only in a name is not applied to a line headed by its entry.
UniProt O00408, whole entry: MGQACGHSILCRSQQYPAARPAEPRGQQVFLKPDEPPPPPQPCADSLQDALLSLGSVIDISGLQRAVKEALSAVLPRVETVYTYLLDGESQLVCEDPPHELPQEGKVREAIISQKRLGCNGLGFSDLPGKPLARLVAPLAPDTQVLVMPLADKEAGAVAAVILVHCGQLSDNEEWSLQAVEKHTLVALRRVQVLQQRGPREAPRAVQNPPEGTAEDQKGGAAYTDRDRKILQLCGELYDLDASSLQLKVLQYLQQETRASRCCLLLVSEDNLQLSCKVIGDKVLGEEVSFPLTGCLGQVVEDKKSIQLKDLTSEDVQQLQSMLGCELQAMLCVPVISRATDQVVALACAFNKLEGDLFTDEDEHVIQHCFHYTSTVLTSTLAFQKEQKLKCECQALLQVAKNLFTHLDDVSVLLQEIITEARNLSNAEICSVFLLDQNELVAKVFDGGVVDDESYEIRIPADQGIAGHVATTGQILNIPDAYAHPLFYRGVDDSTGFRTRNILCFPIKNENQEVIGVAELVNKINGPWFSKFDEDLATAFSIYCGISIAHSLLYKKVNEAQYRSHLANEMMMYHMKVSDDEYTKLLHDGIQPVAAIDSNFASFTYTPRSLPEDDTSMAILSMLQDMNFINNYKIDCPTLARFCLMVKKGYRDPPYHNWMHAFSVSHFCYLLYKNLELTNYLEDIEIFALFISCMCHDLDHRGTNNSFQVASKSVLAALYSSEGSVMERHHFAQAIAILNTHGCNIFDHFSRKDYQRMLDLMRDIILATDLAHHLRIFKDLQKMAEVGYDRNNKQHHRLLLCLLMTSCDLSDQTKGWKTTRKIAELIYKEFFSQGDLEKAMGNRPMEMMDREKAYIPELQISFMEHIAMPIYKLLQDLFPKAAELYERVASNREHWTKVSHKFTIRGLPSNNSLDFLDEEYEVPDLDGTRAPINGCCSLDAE
UniProt P27815: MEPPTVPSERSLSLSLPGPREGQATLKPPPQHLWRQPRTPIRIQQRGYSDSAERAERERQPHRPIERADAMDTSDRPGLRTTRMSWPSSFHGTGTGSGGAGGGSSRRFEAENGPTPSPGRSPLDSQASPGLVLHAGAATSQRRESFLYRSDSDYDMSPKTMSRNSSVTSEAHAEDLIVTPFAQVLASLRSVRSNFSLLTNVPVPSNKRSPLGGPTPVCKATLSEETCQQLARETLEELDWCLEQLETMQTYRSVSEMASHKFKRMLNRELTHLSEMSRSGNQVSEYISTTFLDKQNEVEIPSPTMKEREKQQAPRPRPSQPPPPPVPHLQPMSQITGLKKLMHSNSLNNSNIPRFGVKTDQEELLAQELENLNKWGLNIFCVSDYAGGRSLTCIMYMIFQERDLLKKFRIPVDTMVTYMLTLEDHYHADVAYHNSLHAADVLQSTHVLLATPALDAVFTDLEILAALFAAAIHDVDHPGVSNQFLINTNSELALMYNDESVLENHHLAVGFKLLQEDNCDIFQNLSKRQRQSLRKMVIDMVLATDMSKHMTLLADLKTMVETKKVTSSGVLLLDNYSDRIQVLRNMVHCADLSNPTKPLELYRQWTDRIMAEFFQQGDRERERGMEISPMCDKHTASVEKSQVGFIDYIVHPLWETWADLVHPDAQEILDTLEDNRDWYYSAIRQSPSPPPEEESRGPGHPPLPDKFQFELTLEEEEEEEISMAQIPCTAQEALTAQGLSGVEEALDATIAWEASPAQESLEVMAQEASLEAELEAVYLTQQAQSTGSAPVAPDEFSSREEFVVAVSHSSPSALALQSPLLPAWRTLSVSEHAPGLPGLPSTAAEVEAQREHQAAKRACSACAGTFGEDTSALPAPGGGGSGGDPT
UniProt Q08499: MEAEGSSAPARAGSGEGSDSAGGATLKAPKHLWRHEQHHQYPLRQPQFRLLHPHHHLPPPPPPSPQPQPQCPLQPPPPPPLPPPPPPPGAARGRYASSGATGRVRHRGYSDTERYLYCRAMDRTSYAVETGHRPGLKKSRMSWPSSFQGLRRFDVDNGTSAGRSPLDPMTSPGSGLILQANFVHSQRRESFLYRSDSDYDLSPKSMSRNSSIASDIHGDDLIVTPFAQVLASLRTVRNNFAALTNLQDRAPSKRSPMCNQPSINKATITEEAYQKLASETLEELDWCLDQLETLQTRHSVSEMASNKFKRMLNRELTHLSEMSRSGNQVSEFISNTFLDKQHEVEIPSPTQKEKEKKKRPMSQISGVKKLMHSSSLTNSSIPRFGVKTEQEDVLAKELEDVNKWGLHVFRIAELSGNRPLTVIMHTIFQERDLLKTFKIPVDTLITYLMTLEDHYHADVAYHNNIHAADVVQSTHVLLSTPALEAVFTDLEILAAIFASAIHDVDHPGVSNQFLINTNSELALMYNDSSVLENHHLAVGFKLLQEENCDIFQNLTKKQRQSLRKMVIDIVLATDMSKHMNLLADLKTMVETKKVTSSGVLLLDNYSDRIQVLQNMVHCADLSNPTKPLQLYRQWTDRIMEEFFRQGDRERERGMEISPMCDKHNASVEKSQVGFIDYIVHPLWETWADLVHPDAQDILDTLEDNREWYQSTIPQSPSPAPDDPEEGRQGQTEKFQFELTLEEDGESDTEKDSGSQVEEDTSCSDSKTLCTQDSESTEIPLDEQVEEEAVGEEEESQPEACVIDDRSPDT
UniProt Q07343: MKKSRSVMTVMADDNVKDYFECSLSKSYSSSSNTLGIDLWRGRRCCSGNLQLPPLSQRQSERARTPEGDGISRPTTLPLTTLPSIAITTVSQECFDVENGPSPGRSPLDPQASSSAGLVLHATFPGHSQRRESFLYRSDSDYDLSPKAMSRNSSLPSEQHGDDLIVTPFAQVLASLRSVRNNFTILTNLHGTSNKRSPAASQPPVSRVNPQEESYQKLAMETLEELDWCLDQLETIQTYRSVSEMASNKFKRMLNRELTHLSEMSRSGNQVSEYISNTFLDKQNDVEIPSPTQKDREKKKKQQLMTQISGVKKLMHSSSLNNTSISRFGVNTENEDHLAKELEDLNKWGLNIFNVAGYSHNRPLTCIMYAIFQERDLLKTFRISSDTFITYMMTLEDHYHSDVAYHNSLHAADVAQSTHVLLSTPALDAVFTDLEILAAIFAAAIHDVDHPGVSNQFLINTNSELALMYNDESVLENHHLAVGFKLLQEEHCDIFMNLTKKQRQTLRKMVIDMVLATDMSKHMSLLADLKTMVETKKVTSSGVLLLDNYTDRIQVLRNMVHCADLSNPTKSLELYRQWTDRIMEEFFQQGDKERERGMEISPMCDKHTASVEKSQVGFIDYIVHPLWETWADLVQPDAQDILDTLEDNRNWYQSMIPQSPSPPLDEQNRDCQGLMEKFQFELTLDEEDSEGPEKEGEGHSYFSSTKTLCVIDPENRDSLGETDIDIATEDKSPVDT
UniProt Q08493: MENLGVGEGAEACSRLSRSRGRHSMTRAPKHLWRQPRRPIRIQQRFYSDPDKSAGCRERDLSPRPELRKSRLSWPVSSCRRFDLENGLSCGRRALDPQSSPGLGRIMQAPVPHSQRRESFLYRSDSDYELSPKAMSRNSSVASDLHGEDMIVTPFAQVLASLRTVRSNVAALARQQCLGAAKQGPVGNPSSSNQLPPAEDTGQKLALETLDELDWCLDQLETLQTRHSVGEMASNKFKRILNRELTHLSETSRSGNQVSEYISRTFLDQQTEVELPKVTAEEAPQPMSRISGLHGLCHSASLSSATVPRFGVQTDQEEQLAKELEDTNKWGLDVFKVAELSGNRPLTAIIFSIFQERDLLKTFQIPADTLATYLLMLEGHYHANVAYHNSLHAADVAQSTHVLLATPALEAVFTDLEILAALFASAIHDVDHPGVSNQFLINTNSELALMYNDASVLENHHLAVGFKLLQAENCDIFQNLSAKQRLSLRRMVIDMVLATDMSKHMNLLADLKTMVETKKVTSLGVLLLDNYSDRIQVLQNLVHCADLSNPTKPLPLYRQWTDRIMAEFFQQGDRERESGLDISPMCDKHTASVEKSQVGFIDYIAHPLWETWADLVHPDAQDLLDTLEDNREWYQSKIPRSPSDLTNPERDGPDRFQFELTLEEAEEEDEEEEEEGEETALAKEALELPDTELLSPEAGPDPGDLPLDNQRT

In assay [1] the target is cGMP-dependent 3',5'-cyclic phosphodiesterase (Homo sapiens, UniProt O00408). The assay is described as follows: Inhibition of PDE2 (unknown origin) using FAM-cGMP and FAM-cAMP as substrate after 60 mins by fluorescence assay. The essentials:
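PDE enzyme reaction run 60 min at room temperature in PDE assay buffer with 100 nM FAM-cGMP or FAM-cAMP substrate, 0.125 ng PDE and test compound. A 1:100 diluted binding agent was then added.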

The target in assay [2] is Phosphodiesterase 4 (Homo sapiens, UniProt P27815+Q08499+Q07343+Q08493). The assay is described as follows: Inhibition of PDE4 (unknown origin) using FAM-cAMP as substrate after 60 mins by fluorescence assay. The assay is classed as protein assay.

As usually defined, the IC50 is the concentration at which inhibition is half-maximal. A higher IC50 goes with weaker potency. In assay [1], `CCCc1nn(C)c2c(=O)[nH]c(-c3cc(S(=O)(=O)N4CCN(C)CC4)ccc3OCC)nc12` returned an IC50 above 10 µM. Turning to `CN1CC(=O)N2[C@H](c3ccc4c(c3)OCO4)c3[nH]c4ccccc4c3C[C@@H]2C1=O`, the IC50 in assay [2] was found to be 9.2 µM.
